US20050095674A1, “Cannabinoid receptor interacting proteins and methods of use” (priority 2003, published 2005)

By UniProt entry, the sequences of proteins in these tests, tags left out. Residues count along the entry.
UniProt P20272, 1-464 limits assumed: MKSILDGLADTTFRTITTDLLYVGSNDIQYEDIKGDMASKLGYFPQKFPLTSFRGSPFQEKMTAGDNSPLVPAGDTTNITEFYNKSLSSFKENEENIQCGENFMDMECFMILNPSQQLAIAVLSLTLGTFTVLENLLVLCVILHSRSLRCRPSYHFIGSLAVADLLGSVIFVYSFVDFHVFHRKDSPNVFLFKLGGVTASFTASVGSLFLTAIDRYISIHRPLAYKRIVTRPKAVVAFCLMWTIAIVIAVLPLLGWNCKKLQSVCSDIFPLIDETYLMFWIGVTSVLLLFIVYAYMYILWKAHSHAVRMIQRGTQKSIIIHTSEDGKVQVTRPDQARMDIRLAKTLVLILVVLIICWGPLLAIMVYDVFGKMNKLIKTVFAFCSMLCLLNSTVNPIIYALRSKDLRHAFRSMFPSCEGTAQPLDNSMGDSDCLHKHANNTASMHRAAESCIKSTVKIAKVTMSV
UniProt P20272, whole entry: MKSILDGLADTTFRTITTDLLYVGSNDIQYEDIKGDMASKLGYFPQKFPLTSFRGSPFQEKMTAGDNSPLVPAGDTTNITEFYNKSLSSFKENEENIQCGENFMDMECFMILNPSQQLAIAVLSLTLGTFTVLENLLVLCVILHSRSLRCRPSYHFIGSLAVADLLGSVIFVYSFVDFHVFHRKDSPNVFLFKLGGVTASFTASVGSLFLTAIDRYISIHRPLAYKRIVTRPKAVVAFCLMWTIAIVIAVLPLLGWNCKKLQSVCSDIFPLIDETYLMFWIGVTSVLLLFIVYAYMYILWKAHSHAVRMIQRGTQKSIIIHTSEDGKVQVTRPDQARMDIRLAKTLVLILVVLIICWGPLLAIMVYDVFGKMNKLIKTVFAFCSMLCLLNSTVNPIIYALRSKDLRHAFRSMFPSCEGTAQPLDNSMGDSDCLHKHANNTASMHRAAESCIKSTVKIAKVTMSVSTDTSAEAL

Key:
[1] = target: T1, CB1-464 truncated receptor (Rattus norvegicus, UniProt P20272); assay: Whole-cell patch clamp of Ca2+ currents in SCG neurons expressing the CB1-464 truncated receptor; type: cell-based
T1 construct: expressed in transfected cells

CB1 receptors = CB1 receptors (Rattus norvegicus, UniProt P20272); settings: SCG neurons expressing CB1 receptors (Pan et al., 1998); cited from earlier work

## Cc1c(C(=O)NN2CCCCC2)nn(-c2ccc(Cl)cc2Cl)c1-c1ccc(Cl)cc1 [SR141716]
[1]
  SR141716 induced Ca2+ current increase, truncated receptor compared to wild type receptor: not significantly altered
CB1 receptors
  effect on voltage-gated Ca2+ current: increases the voltage-gated Ca^2+ current
